Results from ChEMBL document CHEMBL1140296, “Anilinodialkoxyquinazolines: screening epidermal growth factor receptor tyrosine kinase inhibitors for potential tumor imaging probes” (J Med Chem, 2005).

Amino acid sequences for entries named in this document (tags omitted).
UniProt P00533, whole entry: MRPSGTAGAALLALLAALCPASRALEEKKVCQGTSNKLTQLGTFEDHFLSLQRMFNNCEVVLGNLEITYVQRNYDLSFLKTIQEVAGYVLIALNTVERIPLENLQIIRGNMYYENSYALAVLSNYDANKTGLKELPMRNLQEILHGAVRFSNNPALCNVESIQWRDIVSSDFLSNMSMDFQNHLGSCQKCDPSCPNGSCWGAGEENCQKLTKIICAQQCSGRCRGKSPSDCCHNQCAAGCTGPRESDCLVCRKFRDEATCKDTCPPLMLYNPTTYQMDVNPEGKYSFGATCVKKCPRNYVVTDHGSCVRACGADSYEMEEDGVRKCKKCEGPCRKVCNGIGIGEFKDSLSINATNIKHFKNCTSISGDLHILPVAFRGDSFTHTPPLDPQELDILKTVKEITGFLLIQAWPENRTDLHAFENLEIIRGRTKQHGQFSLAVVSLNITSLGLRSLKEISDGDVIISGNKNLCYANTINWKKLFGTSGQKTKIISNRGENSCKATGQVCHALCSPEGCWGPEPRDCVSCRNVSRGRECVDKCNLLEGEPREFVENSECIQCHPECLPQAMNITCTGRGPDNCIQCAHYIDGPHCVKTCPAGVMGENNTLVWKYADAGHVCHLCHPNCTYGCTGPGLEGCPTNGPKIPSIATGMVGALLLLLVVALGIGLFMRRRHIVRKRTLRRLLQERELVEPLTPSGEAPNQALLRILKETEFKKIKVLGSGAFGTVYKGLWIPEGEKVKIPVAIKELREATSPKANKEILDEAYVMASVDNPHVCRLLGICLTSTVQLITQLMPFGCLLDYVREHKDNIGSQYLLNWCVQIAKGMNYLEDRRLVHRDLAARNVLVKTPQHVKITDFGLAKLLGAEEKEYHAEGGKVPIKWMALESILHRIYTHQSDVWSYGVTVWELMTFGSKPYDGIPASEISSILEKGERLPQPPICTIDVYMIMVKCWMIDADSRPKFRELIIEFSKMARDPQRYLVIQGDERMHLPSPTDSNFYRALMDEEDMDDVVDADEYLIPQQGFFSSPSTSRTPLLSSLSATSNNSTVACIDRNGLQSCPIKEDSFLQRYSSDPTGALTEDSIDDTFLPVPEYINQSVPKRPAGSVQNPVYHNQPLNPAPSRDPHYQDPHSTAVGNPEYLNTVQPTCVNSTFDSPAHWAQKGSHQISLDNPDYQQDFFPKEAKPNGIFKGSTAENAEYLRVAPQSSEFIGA

Columns and labels:
MCF7 = test: Inhibition of DNA synthesis in EGF-independent human MCF7 cells assessed as 3H]thymidine incorporation; assay type: functional, cell-based; details: MCF7, 48 h
[1] = molecular target: T1, Epidermal growth factor receptor (Homo sapiens, UniProt P00533); test: Inhibition of human EGFR tyrosine kinase phosphorylation expressed in mouse BaF3 cells; assay type: functional, cell-based
[2] = molecular target: T1, Epidermal growth factor receptor; test: Displacement of [125I]4-(3-iodoanilino)-6,7-dimethoxyquinazoline from EGFR tyrosine kinase in human A431 cell membranes; parameters: species or system A-431

IC50 (MCF7) [nM]	IC50 [1] [nM]	IC50 [2] [nM]	Structure (SMILES)
1980	0.8	1.26	COc1cc2ncnc(Nc3cccc(Cl)c3)c2cc1OC
1960	6.3	31.9	COc1cc2ncnc(Nc3cccc(F)c3)c2cc1OC
